This is a selection; strong and weak results do not stand in their true shares. Some results for these compounds are left out of this collection, so the calls shown say nothing about other tests. Active and inactive are the calls of the source.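 The calls were made as follows: active = corrected activity change at or below -50% at 5 µM; inactive = the rest.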

The experiment in a line: cytotoxicity in KKLEB CF airway cells, primary screen, cytotoxicity control for CF NF-kB inhibitor project, cell-based, uHTS, fluorescence assay plates (AID 602141). To be noted: KKLEB CF airway cells viability, ATPlite luminescence, overnight; at 5 µM; active compounds read low; cells stimulated with P. aeruginosa culture filtrate. A general note: Cellular ATP, detected with luciferase, serves as a proxy for viable cell number.
`O=C(NCC1(N2CCCCC2)CCCCC1)c1cc([N+](=O)[O-])ccc1Cl`: the activity change (cytotoxicity) was inactive: 0.2%. To `CN1[C@@H]2CC[C@H]1CC(OC(=O)C(O)(c1ccccc1)c1ccccc1)C2` (stereo partly specified) belongs inactive: -2.2%. To `CC(C)N1C(=O)CC2(CCN(CCOC(=O)C(O)(c3ccccc3)c3ccccc3)CC2)C1=O` belongs inactive: 8.1%; to `CCN(CC)CC(C)C(C)OC(=O)C(O)(c1ccccc1)c1ccccc1` (stereo unspecified), inactive: 10.5%; to `COc1cc(SC)ccc1C(=O)NCC1(N(C)C)CCCCC1`, inactive: 22.4%.

With `Cc1ccc(C(=O)NCC2(N3CCCCC3)CCCCC2)cc1`, the activity change (cytotoxicity) is inactive: -1.6%. Consider `Cc1ccccc1C(=O)NCC1(N2CCCCC2)CCCCC1`, for which the activity change (cytotoxicity) was inactive: -4.8%. To `CN(C)C1CCCC1OC(=O)C(O)(c1ccccc1)c1ccccc1` (stereo unspecified) belongs inactive: 14.5%; to `CN(C)c1ccc(C(=O)NCC2(N(C)C)CCCCC2)cc1`, inactive: -11.3%; to `C=CCN1CCN(CCOC(=O)C(O)(c2ccccc2)c2ccccc2)CC1`, inactive: -8.8%.

Take `O=C(NCC1(N2CCCCC2)CCCCC1)c1cc(F)c(F)cc1Cl`: the activity change (cytotoxicity) is inactive: -7.1%.

Consider `Cc1cc(C(=O)NCC2(N3CCCCC3)CCCCC2)ccc1[N+](=O)[O-]`, for which the activity change (cytotoxicity) is inactive: -1.9%.

As to `CCN1CCCC(OC(=O)C2(O)c3ccccc3C=Cc3ccccc32)C1` (stereo unspecified), the activity change (cytotoxicity) is inactive: -1.4%. The figure for `O=C(NCC1(N2CCCCC2)CCCCC1)c1cccc(Br)c1` is inactive: 5%. For the molecule `COc1ccc(C(=O)NCC2(N(C)C)CCCCC2)cc1`, the activity change (cytotoxicity) is inactive: 7.9%. The figure for `CN(C)C1(CNC(=O)c2ccc(Br)cc2)CCCCC1` is inactive: -0.3%; for `COc1cc(C(=O)NCC2(N(C)C)CCCCC2)c([N+](=O)[O-])cc1OC` it is inactive: -5.4%; for `COc1cccc(C(=O)NCC2(N3CCCCC3)CCCCC2)c1` it is inactive: 19.9%.

`COc1ccc(Cl)cc1C(=O)NCC1(N(C)C)CCCCC1`: the activity change (cytotoxicity) was inactive: -0.9%.

On to `O=C(NCC1(N2CCCCC2)CCCCC1)c1cccc(Cl)c1`, for which the activity change (cytotoxicity) was inactive: 5.8%.

Turning to `O=C(OC1CN2CCC1CC2)C(CO)(c1ccccc1)c1ccccc1` (stereo unspecified), the activity change (cytotoxicity) is inactive: -0.8%. The figure for `COc1ccc(Br)c(C(=O)NCC2(N3CCCCC3)CCCCC2)c1` is inactive: 2.7%; for `C=C(C)C#CC(O)(C(=O)OC1CCN(C)CC1)c1ccccc1` (stereo unspecified) it is inactive: 5.7%.

For the molecule `CN(C)c1cccc(C(=O)NCC2(N(C)C)CCCCC2)c1`, the activity change (cytotoxicity) was inactive: 4.7%. The figure for `CC(C)Oc1ccc(C(=O)NCC2(N(C)C)CCCCC2)cc1` is inactive: 10.6%. The figure for `O=C(OCCN1CCCC1)C(O)(c1ccccc1)c1ccccc1` is inactive: -11.8%.
